Consider one compound from US6645969B1, “Aryl and heteroaryl quinazoline compounds which inhibit CSF-1R receptor tyrosine kinase” (Aventis Pharmaceuticals Inc., priority 1991, dated 2003).

Amino acid sequences for entries named in this document (tags omitted). Residues count along the entry.
UniProt P06239, whole entry: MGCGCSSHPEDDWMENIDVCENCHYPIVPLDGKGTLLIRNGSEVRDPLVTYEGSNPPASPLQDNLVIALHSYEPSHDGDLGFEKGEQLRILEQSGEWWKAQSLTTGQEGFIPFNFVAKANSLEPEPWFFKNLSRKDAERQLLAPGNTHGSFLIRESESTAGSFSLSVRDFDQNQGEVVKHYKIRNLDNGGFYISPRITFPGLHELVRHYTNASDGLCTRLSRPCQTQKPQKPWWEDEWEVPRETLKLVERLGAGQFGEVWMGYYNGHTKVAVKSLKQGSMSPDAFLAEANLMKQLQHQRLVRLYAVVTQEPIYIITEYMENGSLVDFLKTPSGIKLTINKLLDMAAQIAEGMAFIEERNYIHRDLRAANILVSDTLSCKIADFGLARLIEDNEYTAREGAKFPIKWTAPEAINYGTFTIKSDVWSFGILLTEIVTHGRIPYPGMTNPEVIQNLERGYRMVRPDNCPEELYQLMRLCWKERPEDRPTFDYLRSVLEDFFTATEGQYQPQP
UniProt P07333, 20-972 limits assumed: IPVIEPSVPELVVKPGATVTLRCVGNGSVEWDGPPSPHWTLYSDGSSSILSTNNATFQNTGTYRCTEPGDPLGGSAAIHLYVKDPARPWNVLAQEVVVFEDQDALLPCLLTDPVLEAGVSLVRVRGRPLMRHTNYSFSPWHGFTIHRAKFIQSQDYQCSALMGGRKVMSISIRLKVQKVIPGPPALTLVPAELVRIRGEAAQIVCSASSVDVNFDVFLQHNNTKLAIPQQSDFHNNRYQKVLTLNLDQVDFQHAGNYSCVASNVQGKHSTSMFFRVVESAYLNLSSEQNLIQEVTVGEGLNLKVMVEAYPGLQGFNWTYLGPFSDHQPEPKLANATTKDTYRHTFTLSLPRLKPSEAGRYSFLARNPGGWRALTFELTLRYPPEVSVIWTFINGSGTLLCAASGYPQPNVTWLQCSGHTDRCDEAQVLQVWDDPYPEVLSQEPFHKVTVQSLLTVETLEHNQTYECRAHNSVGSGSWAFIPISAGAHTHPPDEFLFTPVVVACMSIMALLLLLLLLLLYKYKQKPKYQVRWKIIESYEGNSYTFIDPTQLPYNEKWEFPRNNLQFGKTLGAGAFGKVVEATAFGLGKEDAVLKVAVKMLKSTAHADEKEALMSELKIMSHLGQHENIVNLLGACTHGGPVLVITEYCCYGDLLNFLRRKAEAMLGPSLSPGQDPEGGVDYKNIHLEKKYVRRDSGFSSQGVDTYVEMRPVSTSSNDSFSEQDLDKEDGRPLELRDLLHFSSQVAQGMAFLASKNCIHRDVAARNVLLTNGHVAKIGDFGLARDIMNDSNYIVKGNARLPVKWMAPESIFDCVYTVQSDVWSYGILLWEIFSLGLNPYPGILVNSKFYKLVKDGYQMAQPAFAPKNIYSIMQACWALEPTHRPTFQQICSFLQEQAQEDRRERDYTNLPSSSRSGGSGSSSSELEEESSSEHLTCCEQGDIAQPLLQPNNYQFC

The target of one test is p56^Ick tyrosine kinase (Homo sapiens, UniProt P06239). As to the kind of experiment: Ick kinase cell-free assay (immunoprecipitated from Jurkat lysate). In kind it is biochemical. Conditions: read-out: Ick activity IC50.
Another test deals with CSF-1R tyrosine kinase (Homo sapiens, UniProt P07333). As to the kind of experiment: CSF-1R cell-free autophosphorylation assay. Conditions: read-out: CSF-R activity IC50.

Regarding `COc1cc2ncnc(Cc3ccccc3)c2cc1OC`, the figures for the half-maximal inhibitory concentration (IC50) at p56^Ick tyrosine kinase and at CSF-1R tyrosine kinase were 100 µM and 7 µM, respectively.

A word on the IC50: it is the midpoint of a concentration-inhibition curve.
